Laboratory results from publication PMC10141580, “Cyclic Dichalcogenides Extend the Reach of Bioreductive Prodrugs to Harness Thiol/Disulfide Oxidoreductases: Applications to seco-Duocarmycins Targeting the Thioredoxin System” (ACS Central Science, 2023).
Like-named read-outs stand apart in the source and are kept apart here.

Test system: panel of 140 standard cancer cell lines
Assay: ProliFiler-140 cancer cell line screen (CellTiterGlo, 72 h)
Assay type: cell-based
Protocol: Incubations were performed for 72 h before automated viability readout with CellTiterGlo (Figure 8).
End of Figure S11 (part 5 of 5): ProliFiler-140 cancer cell line screening for cytotoxicity of the prodrugs.
8-data-point dose response curves from CellTiter-Glo® viability readout.
ProliFiler-140 cell line panel part V

- IC50 (BEN (Lung), read-out: IC50 [M] (ProliFiler-140)): 4.1e-06 M
- IC50 (Homo sapiens, COLO 205, Colo 205 (Colon), read-out: IC50 [M] (ProliFiler-140)): 1.5e-07 M
- IC50 (Homo sapiens, COLO 205, Colo 205, read-out: IC50): 1.5e-07 M
- IC50 (Homo sapiens, MCF7, MCF-7 (Breast), read-out: IC50 [M] (ProliFiler-140)): 2.3e-07 M
- IC50 (Homo sapiens, MCF7, MCF-7, read-out: IC50): 2.3e-07 M
- IC50 (Homo sapiens, MDA-MB-231, MDA MB 231 (Breast), read-out: IC50 [M] (ProliFiler-140)): 2.83e-07 M
- IC50 (MDA MB 231 (Breast), listed as Dox, read-out: IC50 [M] (ProliFiler-140)): 2.8e-07 M
Structure (SMILES): COc1cccc2c1C(=O)c1c(O)c3c(c(O)c1C2=O)C[C@@](O)(C(=O)CO)C[C@@H]3O[C@H]1C[C@H](N)[C@H](O)[C@H](C)O1 [doxorubicin, reference compound]
